{"source": "patent US20230406906A1", "about": "“SERPIN PEPTIDES AND METHODS OF USING THE SAME” (SERPIN PHARMA, LLC, priority 2022, published 2023)", "key": {"C57BL/6J mice [1]": {"test_system": "C57BL/6J mice", "assay": "Intraplantar capsaicin model of acute nociception", "format": "in vivo", "details": "male mice, 2 μg/g 1 h before capsaicin, 10 min", "description": "For the capsaicin studies, male (n=41) and female (n=37) mice were acclimated to the behavior testing facility for at least 1 h. Capsaicin was dissolved in 20% (2-hydroxypropyl)-β-cyclodextrin (Sigma-Aldrich, St. Louis, MO, USA) solution. […] Subsequently, 10 μl of 2 μg/μl capsaicin solution was injected into the plantar area of left hind paw. Immediately after capsaicin injection, mice were placed in a plexiglass box. Two observers, blinded to treatments, recorded the time spent licking and flinching the left hind paw over 10 min."}, "HaCat cells": {"test_system": "HaCat cells", "assay": "CellTiter-Glo cell viability of Poly IC induced HaCat cells", "format": "cell-based, human", "details": "Poly IC 50 μg/ml 24 hours, 100 μg/ml pretreatment", "description": "Cells were pretreated with either vehicle or SP163M (100 μg/ml). TSLP was measured in the supernatant via ELISA (p=0.0045 vs. vehicle treated Poly IC induced cells). FIG. 10B: HaCat cells treated as in FIG. 10A were analyzed via the CellTiter-Glo® Luminescent Cell Viability Assay by Promega. The percent change from untreated (no Poly IC) cells were compared between SP163M vs. vehicle treated poly IC induced control (p=0.0068). FIG. 10C: HaCat cells were insulted with TNFα and immunoblotted for phospho-IkBa (Ser32). GAPDH served as a loading control and signal normalization.\nIn this model of dermal inflammation, SP163M decreased a key cytokine (TSLP) that controls allergic responses, and protected cells from death."}, "CD11b": {"test_system": "CD11b", "assay": "Immunohistochemistry of L4 DRGs two days after PNL, CD11b", "format": "in vivo, mice", "description": "(§1) Neuropathic pain model: Mice (n=30) were randomly assigned to two different groups: SP163M (2 μg/g; s.c. 100 μl) and vehicle (H20 s.c. 100 μl). Mice were treated 1 h prior to partial nerve ligation (PNL) and then daily at least 1 h prior to behavior testing for 2 weeks. PNL studies were performed as previously disclosed^59 and adapted for mice.^57 Male mice were anesthetized with 3% isoflurane (Vetone, USA) in 1.5 L/min oxygen (Praxair, USA) and maintained with 2.5% isoflurane. An incision was made along the long axis of the femur. The sciatic nerve was exposed at mid-thigh level by separating the biceps femoris and the gluteus superficialis and then carefully cleared of surrounding connective tissue. A 9-0 nylon suture (Ethicon, Inc., Somerville, NJ, USA) was inserted into the nerve and ligated so that the one-third to one-half of the nerve was included. The muscle and skin layers were closed using Reflex7 7 mm stainless steel wound clips (CellPoint Scientific, Inc., Gaithersburg, MD, USA). For behavior testing, mice were acclimated, and baseline tested for one week prior to PNL. […] Filaments were presented in a consecutive fashion either ascending or descending using the up-down method as previously disclosed^60 and modified for mice.^57,61 The filament that caused paw withdrawal 50% of the time (the 50% PWT) was determined. […]"}, "C57BL/6J mice [2]": {"test_system": "C57BL/6J mice", "assay": "Neuropathic pain model, partial nerve ligation (PNL), tactile allodynia (von Frey)", "format": "in vivo", "description": "as §1"}}, "data": [{"smiles": "CCCC[C@H](NC(=O)[C@H](CC(C)C)NC(=O)[C@H](Cc1ccccc1)NC(=O)[C@@H](NC(=O)[C@H](Cc1ccccc1)NC(=O)[C@@H]1CCCN1C(=O)[C@H](CCCCN)NC(=O)[C@H](CC(N)=O)NC(=O)[C@H](Cc1ccccc1)NC(=O)[C@H](CCCCN)NC(=O)[C@@H](NC(C)=O)C(C)C)C(C)C)C(=O)N[C@H](C(=O)N[C@@H](CCC(=O)O)C(=O)N[C@@H](CCC(N)=O)C(=O)N[C@@H](CC(N)=O)C(=O)N[C@H](C(=O)N[C@@H](CCCCN)C(N)=O)[C@@H](C)O)[C@@H](C)CC", "note": "[SP163M, Ac-VKFNKPFVFLNIeIEQNTK-NH2]", "values": [{"measurement": "capsaicin induced acute pain-related behavior (time spent licking)", "setting": "C57BL/6J mice [1]", "result": "blocked the capsaicin induced acute pain-related behavior"}, {"measurement": "cell viability", "setting": "HaCat cells", "result": "an increase in cell viability"}, {"measurement": "CD11b levels in DRGs relative to vehicle-treated DRGs", "setting": "CD11b", "result": "approximately five-fold"}, {"measurement": "development of mechanical hypersensitivity (tactile allodynia, PWT)", "setting": "C57BL/6J mice [2]; 2 μg/g s.c. 1 h before PNL, then daily for two weeks", "result": "did not develop mechanical hypersensitivity"}, {"measurement": "day post injury up to which anti-allodynic effects were sustained", "setting": "C57BL/6J mice [2]; 2 μg/g s.c. daily", "result": 9, "unit": "days"}]}]}
